Values of other authors as cited in article PMC2788677 (Journal of medicinal chemistry, 2009).

Amino acid sequences for entries named in this document (tags omitted).
UniProt P32300, whole entry: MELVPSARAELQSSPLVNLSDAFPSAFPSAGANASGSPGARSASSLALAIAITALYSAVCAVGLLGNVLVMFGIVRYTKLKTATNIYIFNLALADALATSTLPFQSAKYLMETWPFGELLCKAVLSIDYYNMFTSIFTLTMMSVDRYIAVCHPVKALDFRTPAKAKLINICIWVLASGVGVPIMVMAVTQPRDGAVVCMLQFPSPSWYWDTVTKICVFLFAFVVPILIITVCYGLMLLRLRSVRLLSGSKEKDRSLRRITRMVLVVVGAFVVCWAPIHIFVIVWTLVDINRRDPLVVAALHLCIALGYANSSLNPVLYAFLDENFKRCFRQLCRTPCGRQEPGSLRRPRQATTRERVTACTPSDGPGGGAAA

Molecular target: DOR (Mus musculus, UniProt P32300)
Conditions: read-out: IC50 (nM ± SEM) DOR; 0.15 nM [3H]DPDPE as radioligand; cited from earlier work

Dermorphin
IC50: 197 ± 28 nM
